Literature values in PMC12648288, “Drastic Impact of Donor Substituents on Xanthenes in the PDT of Glioblastoma” (JACS Au, 2025).

Conditions: known CNS drug; cited from earlier work

In the case of CN(C)c1ccc2nc3ccc(=[N+](C)C)cc-3sc2c1 [methylene blue], the BBB penetration is listed as “penetrates through the BBB”.
